Measured values from publication PMC4823704, “Trastuzumab-grafted PAMAM dendrimers for the selective delivery of anticancer drugs to HER2-positive breast cancer” (Scientific Reports, 2016).
Several values for one entry are separate records, joined by “and”; a condition that tells them apart may be missing. Equal entries are not always repeated.

How the values were obtained:
[1] = test system: MDA-MB-453 cells (HER2-positive); assay: Anti-proliferation assay (MTT)
MDA-MB-453 cells [2] = assay: Annexin V-FITC/PI apoptosis assay; type: cell-based, human; details: 56 ng/mL, 24 h
Experimental: To evaluate apoptosis and necrosis, we used Annexin V-FITC/PI assays, as per the manufacturer’s protocols. Briefly, MDA-MB-453 cells (1 × 10^6 cells/well) were seeded in six-well plates and maintained at 37 °C in 5% CO2 and a 95% humidified atmosphere. The medium was replaced with freshly prepared medium containing drug-loaded formulations. Untreated cells were used as controls. After 24 h, cells were washed twice with PBS and resuspended in 500 μL of binding buffer. We added 5 μL of FITC-conjugated Annexin V and 10 μL of PI, and incubated cells for 15 min at room temperature in the dark. Cells were then analyzed by a Muse™ Cell Analyzer (Merck-Millipore, Germany) and the extent of apoptosis and necrosis was determined.

MDA-MB-453 cells [3] = assay: AO/EB double-staining assay (qualitative apoptosis); type: cell-based, human; details: 56 ng/mL DTX equivalent, 24 h
Experimental: AO/EB assays were used to visualize changes in cell morphology, such as chromatin condensation and apoptotic body formation, which are characteristic of apoptosis. […] After 24 h, the medium was removed and cells were washed twice in PBS before being incubated in PBS-containing AO and EB (5 μg/mL of each) at 37 °C for 10 min.

[4] = Pharmacokinetic study, plasma DTX after intravenous injection; type: in vivo, Balb/c mice; details: versus Taxotere
[5] = In vitro drug release, dialysis method in PBS; type: physicochemical; details: PBS pH 7.4
Experimental: In vitro drug release was studied using a dialysis method in PBS (pH 7.4). Taxotere and dendrimer formulations, equivalent to 2 mg of DTX, were placed in dialysis tubing (MWCO 2000) in release medium (100 mL of PBS) at 37 °C and stirred at 100 rpm. At different time intervals, an aliquot of 1 mL was withdrawn from the release medium and replaced with the same volume of fresh medium. The samples were appropriately diluted, filtered through a 0.22 μm nylon filter, and analyzed with HPLC for DTX content.

[6] = test system: MDA-MB-231 cells (HER2-negative); assay: Anti-proliferation assay (MTT); type: cell-based, human; details: MDA-MB-231, 48 h of incubation
[7] = DTX loading, concentration by HPLC; type: physicochemical; details: dendrimers conjugated with TZ after DTX loading

TZ-Dend-DTX
IC50 ([1]; MDA-MB-453, 48 h of incubation): 0.0562 ± 0.0029 µg/mL and 0.05618 µg/mL
times more cytotoxic than Dend-DTX ([1]; ratio of IC50 values, MDA-MB-453): 3.57 times
live cells (MDA-MB-453 cells [2]): 54.4%
total percentage of apoptotic cells (MDA-MB-453 cells [2]): 42.6%
apoptosis (qualitative, AO/EB staining) (MDA-MB-453 cells [3]): greater apoptosis than those treated with Dend-DTX
AUC0−∞ times higher than that of Taxotere [4]: approximately 4.7 times
MRT increase [4]: approximately 3.4 times
DTX released ([5]; after 24 h): 58.6%
DTX released ([5]; after 48 h): 73.9%
IC50 [6]: 0.1495 µg/mL
DTX concentration [7]: 216.4 ± 2.79 µg/mL
